Ab-14 heavy chain CDR variants: yeast mating affinities

All variants were tested on one target, the spike HR2 peptide PDVDLGDISGINAS (SARS-CoV-2).

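The parent was found by panning a naive human phage display library on the peptide. In library AAYL49, one, two or three CDR residues were substituted; doubles and triples were drawn at random. Affinity was read by AlphaSeq, a pooled yeast mating assay with surface-displayed partners. Binding brings cells together so that they mate, and sequencing counts the barcode pairs among the diploids. Scores were corrected for input abundance and mapped to Kd with protein pairs of known affinity run in the same pool. There are three technical replicates.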

Parent: Ab-14, a human scFv built as VH, the linker GGGGSGGGGSGGGGS, VL. Only the CDRs of the heavy chain vary.
VH: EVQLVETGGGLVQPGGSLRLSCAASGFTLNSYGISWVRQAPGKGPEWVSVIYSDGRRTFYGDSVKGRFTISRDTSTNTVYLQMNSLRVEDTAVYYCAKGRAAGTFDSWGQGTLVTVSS
VL: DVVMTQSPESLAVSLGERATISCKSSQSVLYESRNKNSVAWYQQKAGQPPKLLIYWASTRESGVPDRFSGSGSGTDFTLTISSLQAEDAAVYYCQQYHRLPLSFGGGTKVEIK

Variants are written as CDR1, CDR2 and CDR3 of the heavy chain (limits as in the source). Parent: GFTLNSYGIS, VIYSDGRRTFYGDSVK, GRAAGTFDS. Scale: log10 of Kd in nM, estimated from mating counts; low values are strong binders. Replicates are averaged; those with no signal do not enter the mean. "ND" means that the variant was in the library but no mating with the target was seen in that replicate; the authors take this as a sign of poor binding, and no number exists. Three control strains display no target. For library AAYL49, 15% of the pairings with them gave a signal, with a median of 4.06 and one signal in twenty below 2.83, so weak values seen in few replicates may be background. For each scFv, signals with the empty controls are counted beside the result, with their mean in brackets.

| # | CDR-H1 | CDR-H2 | CDR-H3 | replicates, log10 nM | log10 Kd (nM), mean | signal with controls |
|---|---|---|---|---|---|---|
| 1 | GFLLNSYGIS | VIYSDGRRTFYGRSVK | ARAAGTFDS | ND 3.79 5.75 | 4.77 | 3 of 9 (4.64) |
| 2 | GFTLNSYGIS | VIYSDGRRTFYGDSFG | GRAAGTFDS | ND ND 3.96 | 3.96 | 4 of 9 (4.72) |
| 3 | GFTLNSYGIS | VIYSDGRRTFYGDSVK | GRAAGNFDS | 2.17 1.80 2.09 | 2.02 | 0 of 9 |
| 4 | GRTLNSYGIS | VIYSDGRRTFYGDSVK | GRNAGTFDS | ND ND ND | ND | 1 of 9 (2.81) |
| 5 | GFELNSYGIS | VIYSDGRRTFYGDSFK | GRPAGTFDS | 3.01 3.06 3.13 | 3.07 | 3 of 9 (4.61) |
| 6 | GFTLNSYGIA | VIYSDGRRTFYGDSVK | GRIAGTFKS | ND 3.32 ND | 3.32 | 1 of 9 (4.49) |
| 7 | GFTLNSYGIS | VIYKQGRRKFYGDSVK | GRAAGTFDS | 4.56 3.78 4.21 | 4.19 | 5 of 9 (5.19) |
| 8 | QFTLNSYGIG | CIYSDGRRTFYGDSVK | GRAAGTFDS | ND 3.32 ND | 3.32 | 1 of 9 (2.95) |
| 9 | GFTLNSYGIS | VIYSDGWRTFYGDSVK | GDAAGTRDS | 3.68 2.77 3.08 | 3.17 | 2 of 9 (4.49) |
| 10 | GLTLNSYGIS | VIYSDTRRHFYGDSVK | GRAAGTFDS | 4.20 5.13 ND | 4.66 | 2 of 9 (3.64) |
| 11 | GFTLNGYGIS | VIYSDGRRCFYGDSVK | GRAAGTFES | 2.81 2.89 2.41 | 2.70 | 3 of 9 (4.02) |
| 12 | GFTLNSYMIS | VIYSDGRQTFYGDSVK | GRAAGKFDS | 4.06 ND ND | 4.06 | 0 of 9 |
| 13 | GFTLNAYGIS | NIYSDGRRTFYGDSYK | GRAAGTFDS | ND ND ND | ND | 2 of 9 (4.86) |
| 14 | GFTLNSYGIS | VIYSDGRRTFYGDSVK | GRAPGTFTH | 0.35 0.88 0.62 | 0.62 | 0 of 9 |
| 15 | GFTLNSYGIS | VIYSDGRRTFYGDSVK | GRRAGGWDS | 3.78 ND ND | 3.78 | 2 of 9 (3.66) |
| 16 | GFTLNSYGIS | VIYSDGRRTFYGDSVK | GSAAGHSDS | 5.11 ND ND | 5.11 | 1 of 9 (3.27) |
| 17 | GFTLNSYGIK | GIYSDGRRTFYGDSVK | GRAAGTFDW | ND ND ND | ND | 0 of 9 |
| 18 | GFTLNSYGES | KIYSDGRRTFYGDSVK | GRAAGYFDS | ND ND ND | ND | 3 of 9 (4.02) |
| 19 | GFTLNSYGWS | VIYSDGRRTFYGQKVK | GRAAGTFDS | ND 4.41 ND | 4.41 | 1 of 9 (3.96) |
| 20 | GFTLNSYKKS | VIYSDGRRTFYGDSVK | CRAAGTFDS | ND ND ND | ND | 1 of 9 (3.18) |
| 21 | GFTLNSYGIP | VIYNDGRRTFYGDSVK | GRAASTFDS | 5.05 4.38 5.99 | 5.14 | 8 of 9 (4.66) |
| 22 | GFTRNSYGIS | LIYSDGRRTQYGDSVK | GRAAGTFDS | ND ND ND | ND | 0 of 9 |
| 23 | GFTLNSYGIS | HIYSDGRRTFYGDSVK | GRAEGTFES | ND ND ND | ND | 0 of 9 |
| 24 | GFTLNRYLIS | WIYSDGRRTFYGDSVK | GRAAGTFDS | 4.40 ND 3.93 | 4.16 | 0 of 9 |
| 25 | TFTLNSYGIS | NIYSDGRRTFYGDSVK | GRAYGTFDS | ND ND ND | ND | 0 of 9 |
| 26 | GFTLNYYGIS | VIYSHGRITFYGDSVK | GRAAGTFDS | 5.67 ND 4.41 | 5.04 | 4 of 9 (4.18) |
| 27 | GFTLNSYGIS | VIYSDGRRTIYGLSVK | GEAAGTFDS | ND ND ND | ND | 0 of 9 |
| 28 | GFTLNSYGIS | VIYDDGRRTFYQDSVK | GRAAGRFDS | ND ND ND | ND | 0 of 9 |
| 29 | GFTGNSYGIS | VIYSDGLQTFYGDSVK | GRAAGTFDS | ND ND 3.58 | 3.58 | 4 of 9 (4.21) |
| 30 | GFTLNSYHWS | VIYSDGRRTFYGDSVK | TRAAGTFDS | ND 2.95 ND | 2.95 | 2 of 9 (3.63) |
| 31 | GFTLNSYGIS | VLYSDGRRTFYGDGVK | GRALGTFDS | ND ND 3.53 | 3.53 | 0 of 9 |
| 32 | GFTLNSYGIS | VLYSDQRRTFYGDSVK | GWAAGTFDS | ND 4.79 ND | 4.79 | 1 of 9 (3.61) |
| 33 | GITLNSYGIS | MIYSDGRRTFYGDSVK | GRAAGTFDT | ND ND ND | ND | 1 of 9 (3.23) |
| 34 | GFWLNSMGIS | VIHSDGRRTFYGDSVK | GRAAGTFDS | ND 4.44 ND | 4.44 | 1 of 9 (4.12) |
| 35 | GFTLNSYGIS | VIYSDGRRTMYGDSVK | GRADGTFFS | 0.64 1.22 0.88 | 0.91 | 0 of 9 |
| 36 | GLTLNSYGIS | VGYSDGRRTKYGDSVK | GRAAGTFDS | ND 2.91 2.52 | 2.71 | 1 of 9 (4.19) |

A selection of 2 entries from above:

CDR-H1	CDR-H2	CDR-H3	replicates, log10 nM	log10 Kd (nM), mean	signal with controls
GFTLNSYGIS	VIYKQGRRKFYGDSVK	GRAAGTFDS	4.56 3.78 4.21	4.19	5 of 9 (5.19)
GLTLNSYGIS	VGYSDGRRTKYGDSVK	GRAAGTFDS	ND 2.91 2.52	2.71	1 of 9 (4.19)

The measurements come from Engelhart et al. 2022 (doi:10.1038/s41597-022-01779-4) through the FLAb antibody collection.